Measured values as given in ChEMBL document CHEMBL4425129, “Exploring Basic Tail Modifications of Coumarin-Based Dual Acetylcholinesterase-Monoamine Oxidase B Inhibitors: Identification of Water-Soluble, Brain-Permeant Neuroprotective Multitarget Agents” (J Med Chem, 2016).

Experiment: Efflux ratio of apparent permeability across basolateral to apical side over apical to basolateral side in MDCK2-MDR1 cells at 75 uM by UV-visible spectroscopic method
Format: ADME, cell-based, Canis lupus familiaris
Settings: dog, mdck-mdr1, 75 µM

SMILES: CN1C(=O)CN=C(c2ccccc2)c2cc(Cl)ccc21 [DIAZEPAM]
- Ratio: 0.98
